Measurements taken from US9839646B2, “Small molecule enhancer for dendritic cell cancer vaccines” (priority 2011, dated 2017).

Tests used:
DLD-1 xenograft tumors = assay: Colon cancer xenograft in nude mice; settings: single agent; ARI-4175 100 μg oral q.d or b.i.d; cetuximab 200 μg per week i.p.
HCT-116 xenograft tumors = assay: Colon cancer xenograft in nude mice; settings: single agent; ARI-4175 100 μg oral q.d or b.i.d; cetuximab 200 μg per week i.p.

In the case of “Cetuximab: therapeutic antibody; antitumor effect thought mediated through ADCC [reference compound]”, the tumor growth (DLD-1 xenograft tumors) is reported as “moderate efficacy” and the tumor growth (HCT-116 xenograft tumors) is reported as “did not show any therapeutic effect”.
